IC50 data for one compound are collected here from US20250136612A1, “4',5'-DIHYDROSPIRO[PIPERIDINE-4,7'-THIENO[2,3-C]PYRAN] DERIVATIVES AS INHIBITORS OF APOL1 AND METHODS OF USING SAME” (VERTEX PHARMACEUTICALS INCORPORATED, priority 2022, published 2025).

The chains behind the UniProt entries cited, without tags or fusion partners.
UniProt O14791, whole entry S342G/I384M: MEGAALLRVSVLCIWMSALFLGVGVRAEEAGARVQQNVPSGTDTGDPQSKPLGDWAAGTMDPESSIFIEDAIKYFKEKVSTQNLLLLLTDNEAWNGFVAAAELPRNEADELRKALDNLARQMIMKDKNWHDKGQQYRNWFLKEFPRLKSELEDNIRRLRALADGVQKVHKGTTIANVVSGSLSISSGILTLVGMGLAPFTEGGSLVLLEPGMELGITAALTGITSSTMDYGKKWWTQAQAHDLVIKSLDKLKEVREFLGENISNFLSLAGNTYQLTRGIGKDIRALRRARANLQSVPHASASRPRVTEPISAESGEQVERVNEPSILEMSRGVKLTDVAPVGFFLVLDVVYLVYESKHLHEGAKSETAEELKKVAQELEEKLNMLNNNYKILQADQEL

Molecules are shown by their SMILES.

This test addresses APOL1 (Homo sapiens, UniProt O14791). Description: MultiTox-Fluor Multiplex Cytotoxicity Assay in tet-inducible APOL1 T-REx-HEK293 cells. The settings on record: read-out: IP50 (i.e., IC50 for cell proliferation), 50 ng/mL tet, 24 hours, ratio of dead to live cells. The protocol:
The MultiTox-Fluor Multiplex Cytotoxicity Assay is a single-reagent-addition, homogeneous, fluorescence assay that measures the number of live and dead cells simultaneously in culture wells. The assay measures cell viability and cytotoxicity by detecting two distinct protease activities. The live-cell protease activity is restricted to intact viable cells and is measured using a fluorogenic, cell-permeant peptide glycyl-phenylalanylamino fluorocoumarin (GF-AFC) substrate. The substrate enters intact cells, where it is cleaved to generate a fluorescent signal proportional to the number of living cells. […]
Briefly, the tet-inducible transgenic APOL1 T-REx-HEK293 cell lines were incubated with 50 ng/mL tet to induce APOL1 in the presence of 3-(2-(4-fluorophenyl)-1H-indol-3-yl)-N-((3S,4R)-4-hydroxy-2-oxopyrrolidin-3-yl)propenamide at 10.03, 3.24, 1.13, 0.356, 0.129, 0.042, 0.129, 0.0045, 0.0015, 0.0005 μM in duplicate for 24 hours in a humidified 37° C. incubator. […] The plate was read on the EnVision plate reader. A ratio of dead to live cells was used to normalize, and data was imported, analyzed, and fit using Genedata Screener (Basel, Switzerland) software. […]
Assay ready plates from the Global Compound Archive were ordered using template 384_APOL1Cell_DR10n2_50 uM_v3. […]

Turning to `CCc1cc2c(s1)CCOC21CCNC(c2cc(C)no2)C1` (stereo not shown), the IC50 fell in the range of 100 to 500 nM.
